Molecular target: MarR (i.e., MBP-MarR144) to marO (Escherichia coli, UniProt P27245)
Format: binding

Amino acid sequences for entries named in this document (tags omitted). A change or cut given only in a name is not applied to a line headed by its entry.
UniProt P27245: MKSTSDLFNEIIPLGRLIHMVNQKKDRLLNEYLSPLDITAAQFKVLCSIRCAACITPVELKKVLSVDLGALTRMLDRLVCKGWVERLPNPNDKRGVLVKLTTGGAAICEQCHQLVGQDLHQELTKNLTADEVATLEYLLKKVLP

SMILES | reversal of the binding of MarR (MBP-MarR144) to marO
O=C(O)c1ccccc1O [salicylate] | caused reversal of the binding
O=C(N[C@H](CO)[C@H](O)c1ccc([N+](=O)[O-])cc1)C(Cl)Cl [clm, chloramphenicol] | caused reversal of the binding
CC1(C)S[C@@H]2[C@H](NC(=O)[C@H](N)c3ccccc3)C(=O)N2[C@H]1C(=O)O [ampicillin] | caused reversal of the binding

— patent US6391545B1 (priority 1992, dated 2002)
